The values that follow come from patent US20260240847A1, “COMPOUNDS WITH ANTI-TUMOR ACTIVITY AGAINST CANCER CELLS BEARING TYROSINE KINASE INHIBITOR RESISTANT EGFR MUTATIONS” (BOARD OF REGENTS, THE UNIVERSITY OF TEXAS SYSTEM, priority 2019, published 2026).

Protein sequences, listed by entry. Tags and fused reporters are not part of them. Residues count along the entry.
UniProt P00533, 25-1210 L833V: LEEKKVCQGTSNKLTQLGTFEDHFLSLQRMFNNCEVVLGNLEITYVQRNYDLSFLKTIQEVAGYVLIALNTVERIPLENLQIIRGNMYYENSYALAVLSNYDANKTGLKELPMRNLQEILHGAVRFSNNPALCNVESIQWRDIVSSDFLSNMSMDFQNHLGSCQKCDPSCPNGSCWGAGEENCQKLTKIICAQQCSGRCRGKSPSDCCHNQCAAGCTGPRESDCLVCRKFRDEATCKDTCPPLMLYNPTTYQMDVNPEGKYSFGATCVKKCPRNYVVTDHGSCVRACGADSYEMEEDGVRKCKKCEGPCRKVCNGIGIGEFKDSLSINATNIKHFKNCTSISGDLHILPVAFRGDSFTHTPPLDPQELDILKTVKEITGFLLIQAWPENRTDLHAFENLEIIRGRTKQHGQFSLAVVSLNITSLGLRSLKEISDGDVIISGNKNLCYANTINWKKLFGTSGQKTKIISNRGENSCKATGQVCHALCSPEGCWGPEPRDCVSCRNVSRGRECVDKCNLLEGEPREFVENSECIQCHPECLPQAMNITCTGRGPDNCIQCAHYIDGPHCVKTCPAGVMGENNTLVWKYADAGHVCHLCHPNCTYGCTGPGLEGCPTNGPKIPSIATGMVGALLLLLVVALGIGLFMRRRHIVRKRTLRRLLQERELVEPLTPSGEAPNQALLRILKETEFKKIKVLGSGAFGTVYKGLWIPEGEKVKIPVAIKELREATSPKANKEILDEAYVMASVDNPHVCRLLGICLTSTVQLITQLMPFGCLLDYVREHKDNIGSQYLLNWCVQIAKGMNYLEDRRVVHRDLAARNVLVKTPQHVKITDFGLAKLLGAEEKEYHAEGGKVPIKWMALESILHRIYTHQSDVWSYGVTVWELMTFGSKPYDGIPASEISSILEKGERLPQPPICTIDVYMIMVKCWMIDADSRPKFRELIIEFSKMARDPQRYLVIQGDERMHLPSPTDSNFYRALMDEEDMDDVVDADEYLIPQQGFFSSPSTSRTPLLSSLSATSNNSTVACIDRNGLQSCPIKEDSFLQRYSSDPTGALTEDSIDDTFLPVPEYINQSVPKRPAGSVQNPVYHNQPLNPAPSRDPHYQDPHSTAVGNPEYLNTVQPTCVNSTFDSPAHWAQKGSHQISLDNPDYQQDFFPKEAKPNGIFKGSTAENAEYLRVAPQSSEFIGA
UniProt P00533, 25-1210 S768I/T790M: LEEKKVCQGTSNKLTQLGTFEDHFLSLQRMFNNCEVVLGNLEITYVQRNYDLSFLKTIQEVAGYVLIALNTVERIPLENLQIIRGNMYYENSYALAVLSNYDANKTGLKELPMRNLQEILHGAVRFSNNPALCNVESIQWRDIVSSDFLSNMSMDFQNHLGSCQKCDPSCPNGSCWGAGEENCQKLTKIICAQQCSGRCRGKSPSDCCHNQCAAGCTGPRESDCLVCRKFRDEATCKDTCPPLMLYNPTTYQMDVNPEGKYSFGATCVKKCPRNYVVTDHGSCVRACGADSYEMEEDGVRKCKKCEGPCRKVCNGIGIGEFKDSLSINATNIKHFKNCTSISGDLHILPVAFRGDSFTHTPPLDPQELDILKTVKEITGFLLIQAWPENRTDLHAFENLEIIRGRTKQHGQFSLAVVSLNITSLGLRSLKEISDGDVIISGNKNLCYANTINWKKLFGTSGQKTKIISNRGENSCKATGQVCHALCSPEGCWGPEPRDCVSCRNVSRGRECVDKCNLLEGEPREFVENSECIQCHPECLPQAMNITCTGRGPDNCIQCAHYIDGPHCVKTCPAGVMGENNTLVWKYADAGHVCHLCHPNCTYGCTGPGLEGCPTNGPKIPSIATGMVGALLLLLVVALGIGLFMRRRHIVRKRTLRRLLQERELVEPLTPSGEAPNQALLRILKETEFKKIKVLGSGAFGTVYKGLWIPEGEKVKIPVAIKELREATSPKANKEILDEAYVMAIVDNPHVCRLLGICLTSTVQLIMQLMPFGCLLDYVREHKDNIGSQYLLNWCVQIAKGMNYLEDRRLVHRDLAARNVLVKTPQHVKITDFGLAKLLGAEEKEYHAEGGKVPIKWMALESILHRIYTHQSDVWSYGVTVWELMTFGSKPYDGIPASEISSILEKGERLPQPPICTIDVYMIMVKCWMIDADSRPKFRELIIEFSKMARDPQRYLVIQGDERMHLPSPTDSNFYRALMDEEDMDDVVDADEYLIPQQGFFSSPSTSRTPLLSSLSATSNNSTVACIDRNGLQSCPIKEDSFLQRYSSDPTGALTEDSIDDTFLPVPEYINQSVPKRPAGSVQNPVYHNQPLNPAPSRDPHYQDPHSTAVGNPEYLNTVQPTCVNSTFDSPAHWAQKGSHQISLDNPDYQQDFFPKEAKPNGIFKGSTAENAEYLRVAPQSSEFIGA
UniProt P00533, 25-1210 V769L: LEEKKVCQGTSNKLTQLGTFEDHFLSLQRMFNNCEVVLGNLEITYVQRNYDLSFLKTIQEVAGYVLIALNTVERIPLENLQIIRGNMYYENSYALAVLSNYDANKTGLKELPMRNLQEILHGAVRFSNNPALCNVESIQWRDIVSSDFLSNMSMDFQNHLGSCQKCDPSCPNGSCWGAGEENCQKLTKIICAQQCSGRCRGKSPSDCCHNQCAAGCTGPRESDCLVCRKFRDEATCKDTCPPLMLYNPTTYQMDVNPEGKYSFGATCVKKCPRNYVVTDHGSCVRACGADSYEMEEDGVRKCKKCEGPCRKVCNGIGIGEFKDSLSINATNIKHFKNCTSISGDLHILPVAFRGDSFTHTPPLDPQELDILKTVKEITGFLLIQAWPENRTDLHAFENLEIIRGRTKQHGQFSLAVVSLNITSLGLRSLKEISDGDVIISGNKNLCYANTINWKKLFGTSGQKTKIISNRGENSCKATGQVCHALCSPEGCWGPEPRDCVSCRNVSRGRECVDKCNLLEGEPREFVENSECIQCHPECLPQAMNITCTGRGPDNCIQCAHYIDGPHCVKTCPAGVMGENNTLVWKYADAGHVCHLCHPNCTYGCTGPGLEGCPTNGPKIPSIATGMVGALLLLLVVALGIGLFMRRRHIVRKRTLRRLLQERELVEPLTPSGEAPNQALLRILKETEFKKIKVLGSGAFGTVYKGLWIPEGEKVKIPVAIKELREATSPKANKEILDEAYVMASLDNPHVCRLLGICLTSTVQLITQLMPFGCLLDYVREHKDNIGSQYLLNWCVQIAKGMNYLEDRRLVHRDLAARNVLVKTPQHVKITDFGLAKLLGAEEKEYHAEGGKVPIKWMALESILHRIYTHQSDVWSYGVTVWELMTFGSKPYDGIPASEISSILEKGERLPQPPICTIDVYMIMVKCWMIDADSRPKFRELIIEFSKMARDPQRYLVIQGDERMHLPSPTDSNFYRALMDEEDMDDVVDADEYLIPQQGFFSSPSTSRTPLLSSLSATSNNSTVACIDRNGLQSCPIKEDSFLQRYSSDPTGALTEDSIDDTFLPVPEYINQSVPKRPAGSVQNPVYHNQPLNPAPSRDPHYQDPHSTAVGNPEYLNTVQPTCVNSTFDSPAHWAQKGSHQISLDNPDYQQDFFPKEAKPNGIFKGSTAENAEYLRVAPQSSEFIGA
UniProt P00533, 25-1210 S768I: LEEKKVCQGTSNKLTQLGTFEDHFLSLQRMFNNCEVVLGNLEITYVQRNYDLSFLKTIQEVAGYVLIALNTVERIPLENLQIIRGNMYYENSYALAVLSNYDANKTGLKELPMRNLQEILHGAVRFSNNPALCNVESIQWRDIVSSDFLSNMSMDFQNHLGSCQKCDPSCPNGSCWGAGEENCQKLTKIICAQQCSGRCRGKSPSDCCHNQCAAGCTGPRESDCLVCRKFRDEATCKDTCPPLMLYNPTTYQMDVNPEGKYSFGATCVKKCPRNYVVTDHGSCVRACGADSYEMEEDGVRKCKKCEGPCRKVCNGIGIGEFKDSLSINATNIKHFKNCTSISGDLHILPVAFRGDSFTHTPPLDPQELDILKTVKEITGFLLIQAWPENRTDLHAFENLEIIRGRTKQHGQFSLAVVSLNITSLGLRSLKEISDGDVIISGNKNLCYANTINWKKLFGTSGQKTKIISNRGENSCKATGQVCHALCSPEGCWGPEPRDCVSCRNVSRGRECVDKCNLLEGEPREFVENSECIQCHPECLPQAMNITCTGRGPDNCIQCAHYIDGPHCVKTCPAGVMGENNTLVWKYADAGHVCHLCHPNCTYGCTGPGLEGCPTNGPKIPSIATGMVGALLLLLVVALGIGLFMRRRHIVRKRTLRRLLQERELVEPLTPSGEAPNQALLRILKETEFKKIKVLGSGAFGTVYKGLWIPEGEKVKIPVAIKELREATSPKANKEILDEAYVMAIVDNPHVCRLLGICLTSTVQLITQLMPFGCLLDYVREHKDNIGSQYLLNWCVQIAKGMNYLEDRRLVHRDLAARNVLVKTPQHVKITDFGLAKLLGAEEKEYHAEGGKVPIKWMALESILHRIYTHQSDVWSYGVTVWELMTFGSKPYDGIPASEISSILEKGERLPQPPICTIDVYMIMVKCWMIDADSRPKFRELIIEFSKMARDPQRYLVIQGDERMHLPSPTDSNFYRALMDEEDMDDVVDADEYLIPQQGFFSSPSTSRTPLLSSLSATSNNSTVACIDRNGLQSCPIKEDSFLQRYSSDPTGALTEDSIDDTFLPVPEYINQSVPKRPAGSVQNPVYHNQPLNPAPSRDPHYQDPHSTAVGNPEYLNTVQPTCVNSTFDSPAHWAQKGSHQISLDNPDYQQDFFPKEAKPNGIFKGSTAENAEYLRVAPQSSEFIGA
UniProt P00533, 25-1210 G724S: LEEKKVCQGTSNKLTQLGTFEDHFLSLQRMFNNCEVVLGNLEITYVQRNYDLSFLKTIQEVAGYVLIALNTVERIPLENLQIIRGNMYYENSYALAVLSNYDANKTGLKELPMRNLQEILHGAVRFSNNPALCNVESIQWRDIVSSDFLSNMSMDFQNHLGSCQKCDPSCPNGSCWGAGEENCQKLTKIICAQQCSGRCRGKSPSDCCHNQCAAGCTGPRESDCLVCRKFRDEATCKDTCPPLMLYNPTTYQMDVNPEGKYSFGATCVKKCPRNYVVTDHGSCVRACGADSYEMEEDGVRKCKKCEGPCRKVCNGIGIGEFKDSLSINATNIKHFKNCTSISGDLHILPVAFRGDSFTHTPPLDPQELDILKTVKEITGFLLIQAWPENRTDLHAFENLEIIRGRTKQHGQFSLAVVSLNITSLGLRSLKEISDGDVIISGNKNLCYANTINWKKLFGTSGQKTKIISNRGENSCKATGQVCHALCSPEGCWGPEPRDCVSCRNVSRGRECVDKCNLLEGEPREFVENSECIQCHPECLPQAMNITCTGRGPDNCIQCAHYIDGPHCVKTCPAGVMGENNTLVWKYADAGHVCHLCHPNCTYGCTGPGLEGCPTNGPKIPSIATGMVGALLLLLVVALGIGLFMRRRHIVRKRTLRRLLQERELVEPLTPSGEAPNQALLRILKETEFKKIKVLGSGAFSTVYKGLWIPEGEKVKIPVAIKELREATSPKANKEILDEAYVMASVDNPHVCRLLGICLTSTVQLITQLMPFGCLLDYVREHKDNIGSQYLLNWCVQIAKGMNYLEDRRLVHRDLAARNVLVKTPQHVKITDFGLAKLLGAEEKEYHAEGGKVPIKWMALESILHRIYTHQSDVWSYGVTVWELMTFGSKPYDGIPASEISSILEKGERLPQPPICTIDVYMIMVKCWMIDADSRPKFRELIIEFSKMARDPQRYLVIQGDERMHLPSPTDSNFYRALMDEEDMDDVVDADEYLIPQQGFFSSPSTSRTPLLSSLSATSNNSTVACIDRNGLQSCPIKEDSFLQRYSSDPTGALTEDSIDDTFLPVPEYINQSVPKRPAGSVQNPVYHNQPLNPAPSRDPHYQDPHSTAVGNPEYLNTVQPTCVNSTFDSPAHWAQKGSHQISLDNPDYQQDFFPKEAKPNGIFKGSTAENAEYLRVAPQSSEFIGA

pIC50: −log10 of the molar value.

What all share (assay): Ba/F3 cell viability, Cell Titer Glo
In general terms: In ATP-based viability assays light output follows the ATP content of the culture.

For one assay, the target named is EGFR L833V (Homo sapiens, UniProt P00533, L833V). To be noted: read-out: IC50 Values; Ba/F3 cells expressing EGFR L833V, 72 hours.
The next assay has as its target EGFR S768I/T790M (Homo sapiens, UniProt P00533, S768I/T790M). To be noted: read-out: IC50 Values; Ba/F3 cells expressing EGFR S768I/T790M, 72 hours.
A further assay deals with EGFR V769L (Homo sapiens, UniProt P00533, V769L). To be noted: read-out: IC50 Values; Ba/F3 cells expressing EGFR V769L, 72 hours.
In a further assay the target is EGFR S768I (Homo sapiens, UniProt P00533, S768I). To be noted: read-out: IC50 Values; Ba/F3 cells expressing EGFR S768I, 72 hours.
The target in a further assay is EGFR G724S (Homo sapiens, UniProt P00533, G724S). To be noted: read-out: IC50 Values; Ba/F3 cells expressing EGFR G724S, 72 hours.

Regarding `Cc1cc(C(=O)Nc2nc3cccc(Cl)c3n2[C@@H]2CCCCN(C(=O)/C=C/CN(C)C)C2)ccn1`, the pIC50 at EGFR L833V was 6.61; at EGFR S768I/T790M, 7.59; on EGFR V769L, 6.60; at EGFR S768I, 6.29; at EGFR G724S, 6.90.

One may read the pIC50 as the negative decadic logarithm of the IC50, by convention in mol/L.
